Literature values in paper PMC2788677 (Journal of medicinal chemistry, 2009).

Amino acid sequences for entries named in this document (tags omitted).
UniProt P32300, whole entry: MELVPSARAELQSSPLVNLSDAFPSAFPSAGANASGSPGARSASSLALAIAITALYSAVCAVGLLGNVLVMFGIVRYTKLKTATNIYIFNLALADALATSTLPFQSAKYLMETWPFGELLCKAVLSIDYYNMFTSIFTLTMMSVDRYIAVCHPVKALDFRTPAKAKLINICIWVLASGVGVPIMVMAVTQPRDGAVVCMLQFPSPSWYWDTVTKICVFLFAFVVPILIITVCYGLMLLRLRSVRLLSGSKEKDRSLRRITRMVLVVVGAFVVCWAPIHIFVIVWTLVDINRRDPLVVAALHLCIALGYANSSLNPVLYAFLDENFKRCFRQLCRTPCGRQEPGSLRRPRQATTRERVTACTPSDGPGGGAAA

Target: DOR (Mus musculus, UniProt P32300)
Details: read-out: IC50 (nM ± SEM) DOR; 0.15 nM [3H]DPDPE as radioligand; cited from earlier work

## Dermorphin
  IC50: 197 ± 28 nM
